# Results published in patent publication US9376380B2 (University of Pittsburgh—Of the Commonwealth System of …, priority 2011, dated 2016).
# Chains of the proteins cited; added tags and fusions are not shown.
# UniProt P34972, whole entry: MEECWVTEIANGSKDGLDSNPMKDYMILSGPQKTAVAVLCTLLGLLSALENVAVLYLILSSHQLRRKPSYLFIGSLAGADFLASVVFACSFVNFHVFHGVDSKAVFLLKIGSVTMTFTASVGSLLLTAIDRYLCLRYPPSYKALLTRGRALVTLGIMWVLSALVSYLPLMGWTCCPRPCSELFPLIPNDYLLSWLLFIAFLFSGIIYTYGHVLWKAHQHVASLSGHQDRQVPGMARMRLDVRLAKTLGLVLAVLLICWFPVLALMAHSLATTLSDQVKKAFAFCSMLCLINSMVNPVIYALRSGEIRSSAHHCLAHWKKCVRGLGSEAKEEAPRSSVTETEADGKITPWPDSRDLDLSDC
# UniProt P21554, whole entry: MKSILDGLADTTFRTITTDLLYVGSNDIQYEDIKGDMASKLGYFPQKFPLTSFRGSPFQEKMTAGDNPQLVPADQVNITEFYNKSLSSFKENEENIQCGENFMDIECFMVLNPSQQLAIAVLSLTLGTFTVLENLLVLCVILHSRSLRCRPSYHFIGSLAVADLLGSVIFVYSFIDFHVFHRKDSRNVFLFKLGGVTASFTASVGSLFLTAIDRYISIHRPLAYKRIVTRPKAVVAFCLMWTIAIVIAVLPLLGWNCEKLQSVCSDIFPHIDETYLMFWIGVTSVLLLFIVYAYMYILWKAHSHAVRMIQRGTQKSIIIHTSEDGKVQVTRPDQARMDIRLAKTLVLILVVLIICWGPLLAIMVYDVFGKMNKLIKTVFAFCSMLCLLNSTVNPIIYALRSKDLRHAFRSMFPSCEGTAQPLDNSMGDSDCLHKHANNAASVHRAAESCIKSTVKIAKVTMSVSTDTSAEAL
# Legend:
# CB2 receptor = CB2 receptor (Homo sapiens, UniProt P34972); experiment: [3H]CP-55,940 radioligand competition binding, CB2; parameters: host or cells: cell membrane preparations; details: for SI: selectivity index for CB2: Ki(CB1)/Ki(CB2) ratio
# CB1 receptor = CB1 receptor (Homo sapiens, UniProt P21554); experiment: [3H]CP-55,940 radioligand competition binding, CB1; details: read-out: Ki (CB1); [3H]CP-55,940 displacement
"Ki (CB2 receptor; [3H]CP-55,940 displacement) [nM]",Ki (CB1 receptor) [nM],SMILES,SI: selectivity index for CB2 (CB2 receptor)
–,–,"CCN(CC)c1ccc(CN(C23CC4CC(CC(C4)C2)C3)S(=O)(=O)c2ccc(F)cc2)cc1 [Compound 57, N-((3s,5s,7s)-Adamantan-1-yl)-N-(4-(diethylamino)benzyl)-4-fluorobenzenesulfonamide]",170
47,–,"CCN(CC)c1ccc(CN(C23CC4CC(CC(C4)C2)C3)S(=O)(=O)c2ccc(C)cc2)cc1 [Compound 60, N-((3s,5s,7s)-Adamantan-1-yl)-N-(4-(diethylamino)benzyl)-4-methylbenzenesulfonamide]",–
–,–,"CCN(CC)c1ccc(CN(C23CC4CC(CC(C4)C2)C3)S(=O)(=O)c2cccc(C)c2)cc1 [Compound 61, N-((3s,5s,7s)-Adamantan-1-yl)-N-(4-(diethylamino)benzyl)-3-methylbenzenesulfonamide]",432
–,437,"CCN(CC)c1ccc(CN(c2ccc(C)cc2)S(=O)(=O)c2ccc(C)cc2)cc1 [Compound 94, N-(4-(Diethylamino)benzyl)-4-methyl-N-(p-tolyl)benzenesulfonamide]",80
